Laboratory results as given in patent publication US20250195530A1, “POLQ INHIBITORS” (ASTRAZENECA AB, priority 2022, published 2025).

Amino acid sequences for entries named in this document (tags omitted). Residues count along the entry.
UniProt O75417, 1780-2590: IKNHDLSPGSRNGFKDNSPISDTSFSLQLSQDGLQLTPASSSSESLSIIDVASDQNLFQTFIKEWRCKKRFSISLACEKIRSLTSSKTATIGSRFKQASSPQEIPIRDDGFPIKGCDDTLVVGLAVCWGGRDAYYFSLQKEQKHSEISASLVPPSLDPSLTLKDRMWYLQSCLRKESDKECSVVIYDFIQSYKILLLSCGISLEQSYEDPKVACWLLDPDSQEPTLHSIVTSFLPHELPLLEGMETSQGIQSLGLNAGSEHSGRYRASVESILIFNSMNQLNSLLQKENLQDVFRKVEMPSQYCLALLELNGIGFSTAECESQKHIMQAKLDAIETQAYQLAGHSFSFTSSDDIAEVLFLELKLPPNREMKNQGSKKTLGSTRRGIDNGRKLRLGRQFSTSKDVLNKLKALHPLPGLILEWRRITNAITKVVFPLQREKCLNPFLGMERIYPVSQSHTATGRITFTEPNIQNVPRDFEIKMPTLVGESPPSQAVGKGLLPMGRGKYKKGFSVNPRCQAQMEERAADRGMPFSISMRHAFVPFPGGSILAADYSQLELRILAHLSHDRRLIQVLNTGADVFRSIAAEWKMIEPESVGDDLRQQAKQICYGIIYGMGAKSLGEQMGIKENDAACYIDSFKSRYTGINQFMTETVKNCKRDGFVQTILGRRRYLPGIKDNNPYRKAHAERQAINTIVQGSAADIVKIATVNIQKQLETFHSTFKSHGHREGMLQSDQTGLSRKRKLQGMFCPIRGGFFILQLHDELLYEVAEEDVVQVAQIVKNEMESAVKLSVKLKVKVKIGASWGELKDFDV

Tests used:
[1] = biological target: T1, isolated polymerase domain (I1780-V2590) of DNA polymerase theta (Polθ) (Homo sapiens (Human), UniProt O75417)
[2] = biological target: T1, isolated polymerase domain (I1780-V2590) of DNA polymerase theta (Polθ); assay: biochemical

| SMILES | pIC50 [1] | pIC50 [2] |
| --- | --- | --- |
| Cc1cc(OCCCN(C)C)ncc1-c1nc2c(OC3(C)CC3)ncnc2n1Cc1ccccc1 [Example G2, 3-((5-(9-benzyl-6-(1-methylcyclopropoxy)-9H-purin-8-yl)-4-methylpyridin-2-yl)oxy)-N,N-dimethylpropan-1-amine] | 8.50 | – |
| CC(C)Oc1nccc2c1nc(-c1ccc(OCCN3CCNCC3)cc1Cl)n2Cc1ccccc1 [Example 9, 1-benzyl-2-(2-chloro-4-(2-(piperazin-1-yl)ethoxy)phenyl)-4-isopropoxy-1H-imidazo[4,5-c]pyridine] | 8.10 | – |
| COc1ccc(-c2nc3cc(OC(C)C)ccc3n2Cc2ccccc2)c(Cl)c1 [Example A12, 1-benzyl-2-(2-chloro-4-methoxyphenyl)-5-isopropoxy-1H-benzo[d]imidazole] | 8.40 | – |
| Cc1ccnc(Cn2c(-c3ccc(OC4CNC(=O)NC4)cc3Cl)nc3c(OC4(C)CC4)ncnc32)c1 [Example 42, 5-(3-Chloro-4-(6-(1-methylcyclopropoxy)-9-((4-methylpyridin-2-yl)methyl)-9H-purin-8-yl)phenoxy)tetrahydropyrimidin-2(1H)-one] | 8.00 | – |
| C[C@@H](CCOc1cccc(-c2nc3c(OC4(C)CC4)ncnc3n2Cc2cccc(Cl)c2)c1Cl)C(=O)O [Example T296, (S)-4-(2-chloro-3-(9-(3-chlorobenzyl)-6-(1-methylcyclopropoxy)-9H-purin-8-yl)phenoxy)-2-methylbutanoic acid] | – | 8.30 |
| C/C(=C\COc1ccc(-c2nc3c(OC4(C)CC4)ncnc3n2Cc2cccc(Cl)c2)c(Cl)c1)C(=O)O [Example T255, (E)-4-(3-chloro-4-(9-(3-chlorobenzyl)-6-(1-methylcyclopropoxy)-9H-purin-8-yl)phenoxy)-2-methylbut-2-enoic acid] | – | 8.50 |
| Cc1ccnc(Cn2c(-c3ccc(OCCC(C)(C)O)cc3Cl)nc3c(OC4(C)CC4)ncnc32)c1 [Example T382, 4-(3-chloro-4-(6-(1-methylcyclopropoxy)-9-((4-methylpyridin-2-yl)methyl)-9H-purin-8-yl)phenoxy)-2-methylbutan-2-ol] | – | 8.30 |
| CC(CCOc1ccc(-c2nc3c(OC4(C)CC4)ncnc3n2Cc2cccc(C3CC3)c2)c(Cl)c1)C(=O)O (racemic) [Example T601, 4-(3-chloro-4-(9-(3-cyclopropylbenzyl)-6-(1-methylcyclopropoxy)-9H-purin-8-yl)phenoxy)-2-methylbutanoic acid] | – | 8.40 |
| C[C@H](CCOc1ccc(-c2nc3c(OC4(C)CC4)ncnc3n2Cc2cc(Cl)ccc2C#N)c(Cl)c1)C(=O)O [Example U81, (R)-4-(3-chloro-4-(9-(5-chloro-2-cyanobenzyl)-6-(1-methylcyclopropoxy)-9H-purin-8-yl)phenoxy)-2-methylbutanoic acid] | – | 8.40 |
| CC1(Oc2ncnc3c2nc(-c2cccc(OCCCC(=O)O)c2Cl)n3Cc2cccc(Cl)c2)CC1 [Example T157, 4-(2-chloro-3-(9-(3-chlorobenzyl)-6-(1-methylcyclopropoxy)-9H-purin-8-yl)phenoxy)butanoic acid] | – | 8.30 |
| Cc1ccnc(Cn2c(-c3cc(CC(N)=O)ccc3Cl)nc3c(OC4(C)CC4)ncnc32)c1 [Example T57, 2-(4-chloro-3-(6-(1-methylcyclopropoxy)-9-((4-methylpyridin-2-yl)methyl)-9H-purin-8-yl)phenyl)acetamide] | – | 6.90 |
| COc1cccc(Cn2c(-c3ccc(CC(N)=O)cc3Cl)nc3c(OC4(C)CC4)ncnc32)c1 [Example T105, 2-(3-chloro-4-(9-(3-methoxybenzyl)-6-(1-methylcyclopropoxy)-9H-purin-8-yl)phenyl)acetamide] | – | 8.10 |
| CC1(Oc2ncnc3c2nc(-c2ccc(CC(N)=O)cc2Cl)n3Cc2ccccc2C#N)CC1 [Example T82, 2-(3-chloro-4-(9-(2-cyanobenzyl)-6-(1-methylcyclopropoxy)-9H-purin-8-yl)phenyl)acetamide] | – | 7.80 |
| CC(C)(C)Oc1cccc2c1nc(-c1ccc(OCCC(=O)O)cc1Cl)n2Cc1cccc(Cl)c1 [Example T288, 3-(4-(4-(tert-butoxy)-1-(3-chlorobenzyl)-1H-benzo[d]imidazol-2-yl)-3-chlorophenoxy)propanoic acid] | – | 7.80 |
| CC1(Oc2ncnc3c2nc(-c2ccc(OCCN4C[C@H]5CC[C@@H]4CN5)cc2Cl)n3Cc2ccccc2)CC1 (relative stereo) [Example T604, rel-(1R,4R)-2-(2-(4-(9-benzyl-6-(1-methylcyclopropoxy)-9H-purin-8-yl)-3-chlorophenoxy)ethyl)-2,5-diazabicyclo[2.2.2]octane] | – | 8.50 |
| Cc1c(Cl)ccnc1Cn1c(-c2ccc(OCCN3CCNCC3)cc2Cl)nc2c(OC3(C)CC3)ncnc21 [Example T525, 9-((4-chloro-3-methylpyridin-2-yl)methyl)-8-(2-chloro-4-(2-(piperazin-1-yl)ethoxy)phenyl)-6-(1-methylcyclopropoxy)-9H-purine] | – | 7.90 |
| CC1(Oc2ncnc3c2nc(-c2ccc(OCCC(=O)O)cc2Cl)n3Cc2cccc(Cl)c2Cl)CC1 [Example T85, 3-(3-chloro-4-(9-(2,3-dichlorobenzyl)-6-(1-methylcyclopropoxy)-9H-purin-8-yl)phenoxy)propanoic acid] | – | 8.10 |

| SMILES | pIC50 [1] | pIC50 [2] |
| --- | --- | --- |
| Cc1ccnc(Cn2c(-c3ccc(C(N)=O)cc3Cl)nc3c(OC4(C)CC4)ncnc32)c1 [Example T14, 3-chloro-4-(6-(1-methylcyclopropoxy)-9-((4-methylpyridin-2-yl)methyl)-9H-purin-8-yl)benzamide] | – | 8.20 |
| CC1(Oc2ncnc3c2nc(-c2ccc(OCCN4C5CCC4CNC5)cc2Cl)n3Cc2ccccc2)CC1 [Example T605, 8-(4-(2-(3,8-diazabicyclo[3.2.1]octan-8-yl)ethoxy)-2-chlorophenyl)-9-benzyl-6-(1-methylcyclopropoxy)-9H-purine] | – | 8.30 |
| CC1(Oc2ncnc3c2nc(-c2c(F)ccc(OCCC(=O)O)c2Cl)n3Cc2cccc(Cl)c2)CC1 [Example U66, 3-(2-chloro-3-(9-(3-chlorobenzyl)-6-(1-methylcyclopropoxy)-9H-purin-8-yl)-4-fluorophenoxy)propanoic acid] | – | > 8.70 |
| COc1ccc(Cl)cc1Cn1c(-c2cccc(OC[C@H](C)CC(=O)O)c2Cl)nc2c(OC3(C)CC3)ncnc21 (single isomer, unassigned; isomer 2) [Example 51, 4-(2-Chloro-3-(9-(5-chloro-2-methoxybenzyl)-6-(1-methylcyclopropoxy)-9H-purin-8-yl)phenoxy)-3-methylbutanoic acid (isomer 2)] | – | 8.20 |
| Cc1cnc(Cn2c(-c3ccc(OCCN4CCNCC4)cc3Cl)nc3c(OC4(C)CC4)ncnc32)cc1Cl [Example T526, 8-(2-chloro-4-(2-(piperazin-1-yl)ethoxy)phenyl)-9-((4-chloro-5-methylpyridin-2-yl)methyl)-6-(1-methylcyclopropoxy)-9H-purine] | – | 8.40 |
| COc1ccc(Cl)cc1Cn1c(-c2cccc(OCCCOC(C)(C)C(=O)O)c2Cl)nc2c(OC3(C)CC3)ncnc21 [Example U90, 2-(3-(2-chloro-3-(9-(5-chloro-2-methoxybenzyl)-6-(1-methylcyclopropoxy)-9H-purin-8-yl)phenoxy)propoxy)-2-methylpropanoic acid] | – | 8.30 |
| CC1(Oc2ncnc3c2nc(-c2ccc(CCCCC(=O)O)cc2Cl)n3Cc2ccccc2C#N)CC1 [Example U20, 5-(3-chloro-4-(9-(2-cyanobenzyl)-6-(1-methylcyclopropoxy)-9H-purin-8-yl)phenyl)pentanoic acid] | – | 8.20 |
| CC(CCOc1ccc(-c2nc3c(OC4(C)CC4)ncnc3n2Cc2cc(C#N)ccc2F)c(Cl)c1)C(=O)O (racemic) [Example U18, 4-(3-chloro-4-(9-(5-cyano-2-fluorobenzyl)-6-(1-methylcyclopropoxy)-9H-purin-8-yl)phenoxy)-2-methylbutanoic acid] | – | 8.20 |
| Clc1cc(OCCN2CCNCC2)ccc1-c1nc2c(OC3CCC3)ncnc2n1Cc1ccccc1 [Example T506, 9-benzyl-8-(2-chloro-4-(2-(piperazin-1-yl)ethoxy)phenyl)-6-cyclobutoxy-9H-purine] | – | 7.90 |
| CC(CCOc1ccc(-c2nc3c(OC4(C)CC4)ncnc3n2Cc2cccc(Cl)c2F)c(Cl)c1)C(=O)O (racemic) [Example T267, 4-(3-chloro-4-(9-(3-chloro-2-fluorobenzyl)-6-(1-methylcyclopropoxy)-9H-purin-8-yl)phenoxy)-2-methylbutanoic acid] | – | 8.20 |
| Cc1ccnc(Cn2c(-c3ccc(CN4CC(O)C4)cc3Cl)nc3c(OC4(C)CC4)ncnc32)c1 [Example T209, 1-(3-chloro-4-(6-(1-methylcyclopropoxy)-9-((4-methylpyridin-2-yl)methyl)-9H-purin-8-yl)benzyl)azetidin-3-ol] | – | 8.30 |
| CC(C)Oc1ncnc2c1nc(-c1ccc(OCCN3CCN(C)CC3)cc1)n2Cc1ccccc1 [Example B1, 9-benzyl-6-isopropoxy-8-(4-(2-(4-methyl-piperazin-1-yl)ethoxy)phenyl)-9H-purine] | – | 8.10 |
| CC1(Oc2ncnc3c2nc(-c2cccc(OCCCc4nn[nH]n4)c2Cl)n3Cc2cccc(Cl)c2)CC1 [Example T163, 8-(3-(3-(2H-tetrazol-5-yl)propoxy)-2-chlorophenyl)-9-(3-chlorobenzyl)-6-(1-methylcyclopropoxy)-9H-purine] | – | 8.20 |
| Cc1cc(C)nc(Cn2c(-c3ccc(OCCN4CCNCC4)cc3Cl)nc3c(OC4(C)CC4)ncnc32)c1 [Example T595, 8-(2-chloro-4-(2-(piperazin-1-yl)ethoxy)phenyl)-9-((4,6-dimethylpyridin-2-yl)methyl)-6-(1-methylcyclopropoxy)-9H-purine] | – | 8.30 |
| C[C@@H](CCOc1cccc(-c2nc3c(OC4(C)CC4)ncnc3n2Cc2cc(Cl)ccc2F)c1Cl)C(=O)O [Example U24, (S)-4-(2-chloro-3-(9-(5-chloro-2-fluorobenzyl)-6-(1-methylcyclopropoxy)-9H-purin-8-yl)phenoxy)-2-methylbutanoic acid] | – | 8.20 |
| CC(C)(CCOc1ccc(-c2nc3c(OC4(C)CC4)ncnc3n2Cc2cccc(Cl)c2)c(Cl)c1)CC(=O)O [Example T562, 5-(3-chloro-4-(9-(3-chlorobenzyl)-6-(1-methylcyclopropoxy)-9H-purin-8-yl)phenoxy)-3,3-dimethylpentanoic acid] | – | 8.30 |

pIC50: −log10 of the molar value. Read-outs that look alike come from different tables or passages of the source.
